In patent US10676504B2 (Colorado State University Research Foundation, priority 2015, dated 2020):
pIC50: −log10 of the molar value.

Amino acid sequences for entries named in this document (tags omitted). A change or cut given only in a name is not applied to a line headed by its entry.
UniProt Q92769, whole entry: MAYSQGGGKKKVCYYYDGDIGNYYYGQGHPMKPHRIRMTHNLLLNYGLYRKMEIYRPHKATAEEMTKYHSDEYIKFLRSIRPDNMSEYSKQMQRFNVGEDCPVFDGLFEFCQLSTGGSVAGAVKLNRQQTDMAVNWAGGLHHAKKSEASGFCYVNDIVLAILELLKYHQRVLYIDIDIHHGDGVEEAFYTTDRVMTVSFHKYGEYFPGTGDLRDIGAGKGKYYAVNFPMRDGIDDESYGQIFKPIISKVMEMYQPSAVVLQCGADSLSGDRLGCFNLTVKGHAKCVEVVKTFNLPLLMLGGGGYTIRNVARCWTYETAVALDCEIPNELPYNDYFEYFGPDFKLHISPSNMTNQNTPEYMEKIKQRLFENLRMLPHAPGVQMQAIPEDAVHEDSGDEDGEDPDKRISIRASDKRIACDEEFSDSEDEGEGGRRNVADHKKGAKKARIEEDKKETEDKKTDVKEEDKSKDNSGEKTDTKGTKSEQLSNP
UniProt Q13547, whole entry: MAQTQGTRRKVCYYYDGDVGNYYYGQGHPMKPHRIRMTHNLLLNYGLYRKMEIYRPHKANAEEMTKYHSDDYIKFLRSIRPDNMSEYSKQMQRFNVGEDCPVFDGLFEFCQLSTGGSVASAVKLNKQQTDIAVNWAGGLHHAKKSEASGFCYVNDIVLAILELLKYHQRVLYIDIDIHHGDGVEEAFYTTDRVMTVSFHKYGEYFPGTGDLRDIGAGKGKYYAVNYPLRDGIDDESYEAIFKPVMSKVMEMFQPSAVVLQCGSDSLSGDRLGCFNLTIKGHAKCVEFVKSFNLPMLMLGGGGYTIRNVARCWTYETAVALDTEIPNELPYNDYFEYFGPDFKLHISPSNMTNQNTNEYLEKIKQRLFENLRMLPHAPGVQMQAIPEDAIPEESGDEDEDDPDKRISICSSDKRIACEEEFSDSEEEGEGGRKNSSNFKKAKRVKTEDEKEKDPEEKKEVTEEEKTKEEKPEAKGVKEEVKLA
UniProt O15379: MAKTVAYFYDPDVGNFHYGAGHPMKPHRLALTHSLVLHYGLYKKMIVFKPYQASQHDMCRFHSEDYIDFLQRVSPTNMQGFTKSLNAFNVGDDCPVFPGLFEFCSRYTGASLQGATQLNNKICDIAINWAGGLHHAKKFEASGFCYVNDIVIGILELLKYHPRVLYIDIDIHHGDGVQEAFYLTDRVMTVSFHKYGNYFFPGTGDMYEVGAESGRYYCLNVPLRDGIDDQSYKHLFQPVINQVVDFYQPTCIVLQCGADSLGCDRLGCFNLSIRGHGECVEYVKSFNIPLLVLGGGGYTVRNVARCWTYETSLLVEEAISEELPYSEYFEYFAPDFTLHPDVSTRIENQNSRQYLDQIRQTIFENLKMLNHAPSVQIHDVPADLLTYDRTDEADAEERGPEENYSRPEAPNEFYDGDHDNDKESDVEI

Experiments:
HDAC2 [1] = target: T1, HDAC2 (Homo sapiens, UniProt Q92769); assay: HDAC2 inhibition, trypsin-coupled kinetic fluorescence homogeneous assay (Example 10); type: biochemical; conditions: read-out: X50
HDAC1 = HDAC1 (Homo sapiens, UniProt Q13547); assay: HDAC biochemical assay of P5-P12 (Table P1); conditions: read-out: HDAC1 IC50
HDAC2 [2] = target: T1, HDAC2; assay: HDAC biochemical assay of P5-P12 (Table P1); conditions: read-out: HDAC2 IC50
HDAC3 = HDAC3 (Homo sapiens, UniProt O15379); assay: HDAC biochemical assay of P5-P12 (Table P1); conditions: read-out: HDAC3 IC50
HDAC6 = target: T2, HDAC6 (Homo sapiens, UniProt Q9UBN7); assay: HDAC biochemical assay of P5-P12 (Table P1); conditions: read-out: HDAC6 IC50, 200 μM TCEP
T2 sequence (Q9UBN7 1-1215): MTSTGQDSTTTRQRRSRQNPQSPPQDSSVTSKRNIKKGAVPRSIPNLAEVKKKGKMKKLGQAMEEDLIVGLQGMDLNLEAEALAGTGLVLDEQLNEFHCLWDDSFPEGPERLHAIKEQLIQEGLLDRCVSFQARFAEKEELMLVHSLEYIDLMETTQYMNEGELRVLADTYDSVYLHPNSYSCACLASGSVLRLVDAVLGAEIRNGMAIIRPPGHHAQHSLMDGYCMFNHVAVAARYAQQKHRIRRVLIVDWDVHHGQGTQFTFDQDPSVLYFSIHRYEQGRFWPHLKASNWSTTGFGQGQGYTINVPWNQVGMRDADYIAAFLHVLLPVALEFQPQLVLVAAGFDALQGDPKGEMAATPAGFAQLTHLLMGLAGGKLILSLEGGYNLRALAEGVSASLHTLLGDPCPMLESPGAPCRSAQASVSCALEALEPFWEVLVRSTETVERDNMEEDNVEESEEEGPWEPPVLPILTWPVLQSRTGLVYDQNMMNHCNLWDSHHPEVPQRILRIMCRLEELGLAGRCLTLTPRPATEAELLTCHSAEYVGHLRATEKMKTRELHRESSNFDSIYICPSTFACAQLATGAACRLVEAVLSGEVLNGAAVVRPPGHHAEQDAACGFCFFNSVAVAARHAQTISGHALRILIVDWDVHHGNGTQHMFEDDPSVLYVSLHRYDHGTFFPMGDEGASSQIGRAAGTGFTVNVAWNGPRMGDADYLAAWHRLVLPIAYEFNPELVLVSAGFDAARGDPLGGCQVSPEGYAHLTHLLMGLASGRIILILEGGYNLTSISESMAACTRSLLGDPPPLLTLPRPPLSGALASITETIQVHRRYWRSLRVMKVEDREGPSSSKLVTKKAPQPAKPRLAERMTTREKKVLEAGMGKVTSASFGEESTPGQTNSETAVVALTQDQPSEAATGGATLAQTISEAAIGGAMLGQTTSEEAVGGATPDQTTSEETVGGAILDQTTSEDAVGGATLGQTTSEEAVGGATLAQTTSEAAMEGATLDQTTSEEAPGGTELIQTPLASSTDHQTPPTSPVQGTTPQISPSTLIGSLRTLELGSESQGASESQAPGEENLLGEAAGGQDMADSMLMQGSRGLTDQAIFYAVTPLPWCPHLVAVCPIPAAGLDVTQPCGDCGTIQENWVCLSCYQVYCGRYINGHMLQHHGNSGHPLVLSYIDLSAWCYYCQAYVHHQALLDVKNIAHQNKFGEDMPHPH

CC(C)[C@@H]1NC(=O)[C@]2(C)CSC(=N2)c2csc(n2)CNC(=O)C[C@@H](/C=C/CCS)NC1=O [Largazole peptide isostere thiol]
pIC50 (HDAC2 [1]): 7.95
pIC50 (HDAC1): 8.71
pIC50 (HDAC2 [2]): 8.47
pIC50 (HDAC3): 8.59
pIC50 (HDAC6): 6.99
